{
  "sequences": {"note": "Protein sequences, listed by entry. Tags and fused reporters are not part of them. Lines headed by an entry give the natural chain unless they say otherwise; changes in a name come on top.", "UniProt P48736": "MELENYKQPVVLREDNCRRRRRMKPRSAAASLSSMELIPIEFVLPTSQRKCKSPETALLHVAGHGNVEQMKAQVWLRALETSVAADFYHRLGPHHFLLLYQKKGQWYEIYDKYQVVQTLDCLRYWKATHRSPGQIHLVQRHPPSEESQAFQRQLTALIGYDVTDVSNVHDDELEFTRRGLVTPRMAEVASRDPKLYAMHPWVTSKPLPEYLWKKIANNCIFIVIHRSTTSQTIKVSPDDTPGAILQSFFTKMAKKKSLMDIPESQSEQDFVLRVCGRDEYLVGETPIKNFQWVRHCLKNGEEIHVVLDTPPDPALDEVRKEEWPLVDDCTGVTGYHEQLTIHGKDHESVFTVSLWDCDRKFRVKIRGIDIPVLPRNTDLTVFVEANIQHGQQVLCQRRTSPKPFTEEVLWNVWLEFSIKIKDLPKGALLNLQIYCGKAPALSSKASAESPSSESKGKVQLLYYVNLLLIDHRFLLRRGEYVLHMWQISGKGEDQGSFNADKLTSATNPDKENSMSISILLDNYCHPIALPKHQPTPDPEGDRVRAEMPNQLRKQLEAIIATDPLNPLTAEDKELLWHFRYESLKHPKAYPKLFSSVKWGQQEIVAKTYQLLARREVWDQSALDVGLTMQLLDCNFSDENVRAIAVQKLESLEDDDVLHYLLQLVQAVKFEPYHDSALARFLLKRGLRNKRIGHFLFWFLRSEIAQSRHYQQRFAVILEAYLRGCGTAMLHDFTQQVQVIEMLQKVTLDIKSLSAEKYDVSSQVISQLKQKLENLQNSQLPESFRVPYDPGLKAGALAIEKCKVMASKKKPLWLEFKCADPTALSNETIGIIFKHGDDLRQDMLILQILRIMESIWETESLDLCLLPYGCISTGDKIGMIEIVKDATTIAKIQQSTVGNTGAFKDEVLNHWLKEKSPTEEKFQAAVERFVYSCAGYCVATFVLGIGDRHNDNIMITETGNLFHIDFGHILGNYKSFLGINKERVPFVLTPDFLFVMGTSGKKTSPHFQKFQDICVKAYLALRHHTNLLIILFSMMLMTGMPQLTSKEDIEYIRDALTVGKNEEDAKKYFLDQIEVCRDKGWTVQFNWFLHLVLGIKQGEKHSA", "UniProt P42336, whole entry": "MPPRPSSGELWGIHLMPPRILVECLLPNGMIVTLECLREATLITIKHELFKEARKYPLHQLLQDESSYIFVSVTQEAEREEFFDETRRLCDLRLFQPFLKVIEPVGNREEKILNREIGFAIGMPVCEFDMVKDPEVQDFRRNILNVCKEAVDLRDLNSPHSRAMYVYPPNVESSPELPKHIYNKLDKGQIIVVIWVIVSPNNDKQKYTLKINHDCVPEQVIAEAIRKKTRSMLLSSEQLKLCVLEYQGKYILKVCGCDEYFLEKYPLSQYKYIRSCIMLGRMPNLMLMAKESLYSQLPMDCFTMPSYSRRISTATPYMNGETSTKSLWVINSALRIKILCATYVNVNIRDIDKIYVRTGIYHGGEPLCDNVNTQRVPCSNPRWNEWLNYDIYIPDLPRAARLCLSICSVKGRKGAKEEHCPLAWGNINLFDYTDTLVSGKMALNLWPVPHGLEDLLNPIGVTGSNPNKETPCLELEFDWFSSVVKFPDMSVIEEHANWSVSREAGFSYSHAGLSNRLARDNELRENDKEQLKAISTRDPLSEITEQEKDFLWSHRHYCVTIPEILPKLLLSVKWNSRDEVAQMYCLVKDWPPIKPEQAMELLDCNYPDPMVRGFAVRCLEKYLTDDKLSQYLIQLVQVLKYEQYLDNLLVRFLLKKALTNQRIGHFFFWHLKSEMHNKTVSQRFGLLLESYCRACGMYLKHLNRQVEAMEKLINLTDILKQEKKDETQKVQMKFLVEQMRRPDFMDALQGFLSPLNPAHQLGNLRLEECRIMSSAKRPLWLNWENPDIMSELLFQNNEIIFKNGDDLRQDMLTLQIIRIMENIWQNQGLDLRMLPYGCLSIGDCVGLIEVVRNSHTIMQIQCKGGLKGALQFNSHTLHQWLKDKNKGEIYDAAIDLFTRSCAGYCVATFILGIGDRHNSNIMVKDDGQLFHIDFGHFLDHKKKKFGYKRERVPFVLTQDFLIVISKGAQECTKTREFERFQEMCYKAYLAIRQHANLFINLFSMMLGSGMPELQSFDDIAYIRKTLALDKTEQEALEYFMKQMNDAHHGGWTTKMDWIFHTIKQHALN"},
  "source": "ChEMBL document CHEMBL2321664",
  "about": "“L-Aminoacyl-triazine derivatives are isoform-selective PI3Kβ inhibitors that target non-conserved Asp862 of PI3Kβ” (ACS Med Chem Lett, 2013)",
  "key": {"[1]": {"target": "Phosphatidylinositol 4,5-bisphosphate 3-kinase catalytic subunit gamma isoform (Homo sapiens, UniProt P48736)", "experiment": "Inhibition of PI3K-gamma (unknown origin) assessed as decrease in ATP consumption using phosphatidylinositol bisphosphate and 10 uM ATP as substrate measured after 60 mins by luminescence assay"}, "[2]": {"target": "T1, Phosphatidylinositol 4,5-bisphosphate 3-kinase catalytic subunit alpha isoform (Homo sapiens, UniProt P42336)", "experiment": "Inhibition of PI3K-alpha (unknown origin) assessed as decrease in ATP consumption using phosphatidylinositol bisphosphate and 10 uM ATP as substrate measured after 60 mins by luminescence assay"}, "[3]": {"target": "T1, Phosphatidylinositol 4,5-bisphosphate 3-kinase catalytic subunit alpha isoform", "experiment": "Inhibition of wild type PI3K-alpha (unknown origin) assessed as decrease in ATP consumption using phosphatidylinositol bisphosphate and 100 uM ATP as substrate measured after 60 mins by luminescence assay"}},
  "data": [
    {"smiles": "C[C@H](N)C(=O)N1CCN(c2nc(N3CCOCC3)nc(-n3c(C(F)F)nc4ccccc43)n2)CC1", "values": [
      {"measurement": "IC50", "setting": "[1]", "value": 3.6, "unit": "µM"},
      {"measurement": "IC50", "setting": "[2]", "value": 3.5, "unit": "µM"},
      {"measurement": "IC50", "setting": "[3]", "value": 8.2, "unit": "µM"}
    ]},
    {"smiles": "C[C@@H](N)C(=O)N1CCN(c2nc(N3CCOCC3)nc(-n3c(C(F)F)nc4ccccc43)n2)CC1", "values": [
      {"measurement": "IC50", "setting": "[2]", "value": 3.7, "unit": "µM"}
    ]}
  ]
}
